## Curated experimental data: properties

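OPERA's authors assembled the values from existing databases and did not measure them anew. One number stands for a compound and property, with no spread given. Method, purity and exact conditions of the single measurements are not given. A value may pool stereoisomers or salt forms, and the file does not say which form was measured. Some upstream entries may be estimates or bounds without being marked so.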

The melting point is given in degrees Celsius.
The boiling point refers to atmospheric pressure (760 mmHg), by the definition of the set.
logP is the log10 of the octanol-water partition coefficient; higher is more lipophilic.
Water solubility is log10 of mol/L, nominally at 25 °C; higher is more soluble.
Vapor pressures (log10 mmHg) refer to near room temperature, 15 to 30 °C; higher is more volatile.
The Henry's law constant is on a log10 scale in atm·m3/mol (set defined at 25 °C); higher favours air over water.
The unbound fraction in human plasma runs from 0 (all bound) to 1 (all free).
Clint is human hepatic intrinsic clearance in µL/min per million cells; 0 means that no clearance was seen.
"n/a" marks a cell with nothing listed here.

| compound | melting point (°C) | bp (°C) | logP | log S (log10 mol/L) | vapor pressure (log10 mmHg) | log H (log10 atm·m3/mol) | plasma fu | hepatic Clint (µL/min/10^6 cells) |
|---|---|---|---|---|---|---|---|---|
| CN(C)c1ccc(/N=N/c2ccccc2C(=O)O)cc1 | n/a | n/a | n/a | n/a | n/a | n/a | 0.0304 | 11.1 |
| CCCCCCCC(OC)OC | n/a | n/a | n/a | -2.918 | -1.027 | n/a | n/a | n/a |
| CCOC(=O)C1=C(C)C=CCC1(C)C | n/a | n/a | n/a | -3.412 | -0.712 | n/a | n/a | n/a |
| CCCCCCCCCCCC(=O)OCCC(C)C | -18.5 | n/a | n/a | -6.733 | n/a | n/a | n/a | n/a |
| Cc1ccc(N)cc1O | n/a | n/a | n/a | n/a | n/a | n/a | 0.604 | 16 |
| O=C(Nc1ccc2c(O)c(N=Nc3ccc(N=Nc4ccc(S(=O)(=O)[O-])cc4)cc3)c(S(=O)(=O)[O-])cc2c1)c1ccccc1.[Na+].[Na+] | n/a | n/a | -2.05 | -2.157 | n/a | n/a | n/a | n/a |
| C=CC(C)(CCC=C(C)C)OC(=O)CC (stereo not given) | n/a | 223 | n/a | n/a | -1.259 | n/a | n/a | n/a |
| CCOC(=O)CNC(=O)[C@@H]1C[C@H](C)CC[C@H]1C(C)C | 81 | n/a | 2.73 | n/a | -5.763 | n/a | n/a | n/a |
| CC(C)c1cc(Oc2ccccc2)cc(C(C)C)c1NC(=S)NC(C)(C)C | n/a | n/a | n/a | n/a | -7.824 | -6.899 | n/a | n/a |
| O=C(c1ccc(F)cc1)c1ccc(F)cc1 | n/a | n/a | 3.37 | -4.396 | -4.426 | n/a | n/a | n/a |
| COC(=O)CCN[N+](C)(C)C.[Br-] | 121.8 | n/a | -3.26 | n/a | n/a | n/a | n/a | n/a |
| O=C(CCCl)OCCCCCl | -62 | 236.4 | n/a | -2.407 | -2.921 | n/a | n/a | n/a |
| Fc1cccc(Cl)c1 | n/a | n/a | 2.76 | -2.35 | n/a | n/a | n/a | n/a |
| CSc1ccc(C(=O)c2[nH]c(=O)[nH]c2C)cc1 | n/a | n/a | n/a | -3.561 | n/a | n/a | 0.275 | n/a |
| CCOc1ccc(Cc2cc([C@@H]3O[C@H](COC(C)=O)[C@@H](OC(C)=O)[C@H](OC(C)=O)[C@H]3OC(C)=O)ccc2Cl)cc1 | 130.6 | n/a | 4.75 | -7.712 | -5.593 | n/a | n/a | n/a |
| CCCCC(CC)CNc1ccc2ccccc2c1N=Nc1ccc(N=Nc2cccc(C)c2)c(C)c1 (stereo not given) | 67 | n/a | n/a | -8.215 | n/a | n/a | n/a | n/a |
| CCCCC/C(C=O)=C\c1ccc(C)cc1 | n/a | 306.8 | 5.3 | -4.231 | -3.894 | n/a | n/a | n/a |
| CC(CC(=O)[O-])CC(C)(C)C.[K+] (stereo not given) | 285 | n/a | -0.47 | n/a | -8.745 | n/a | n/a | n/a |
| CC(=O)C(N=Nc1ccc(C)cc1[N+](=O)[O-])C(=O)Nc1ccccc1 (stereo not given) | 257 | n/a | n/a | -7.418 | n/a | n/a | n/a | n/a |
| CCCCCCC#CC(=O)OC | -6 | n/a | 3.4 | -3.361 | -1.253 | n/a | n/a | n/a |
| Brc1ccc(Oc2ccc(Br)c(Br)c2)cc1Br | n/a | n/a | n/a | -7.908 | -6.293 | n/a | n/a | n/a |
| COc1cc(OC)nc(NC(=O)Oc2ccccc2)n1 | 120.8 | n/a | 2.1 | -3.614 | n/a | n/a | n/a | n/a |
| COc1cc(C=C(C(C)=O)C(C)=O)cc(OC)c1OC | 81.8 | n/a | n/a | -3.735 | -6.135 | n/a | n/a | n/a |
| N#CCCNCCCCCCNCCC#N | 17.85 | n/a | n/a | n/a | -6.227 | n/a | n/a | n/a |
| COC(=O)c1nccnc1N | n/a | n/a | n/a | -1.642 | -4.309 | n/a | n/a | n/a |
| COC(=O)c1ccc2c(c1)C(C)(C)C(=CC=C1C(=O)N(c3ccccc3)N=C1C)N2C | 227.4 | n/a | 3.6 | -5.975 | n/a | n/a | n/a | n/a |
| CCc1cc(C(N)=S)ccn1 | n/a | n/a | 0.435 | -2.259 | n/a | n/a | 0.7 | n/a |
| CSCC[C@H](NC(=O)[C@H](Cc1c[nH]c2ccccc12)NC(=O)CCNC(=O)OC(C)(C)C)C(=O)N[C@@H](CC(=O)O)C(=O)N[C@@H](Cc1ccccc1)C(N)=O | n/a | n/a | 1.6 | -5.395 | n/a | n/a | n/a | n/a |
| CC(=CCCC=O)CCCC(C)C | n/a | 235.8 | n/a | -4.091 | -1.428 | n/a | n/a | n/a |
| COC(C)(C)C1CC=C(C)CC1 (stereo not given) | n/a | n/a | 4.5 | -3.297 | -1.129 | n/a | n/a | n/a |
| C=CC(=O)OCC1(CC)COCOC1 | -28.7 | n/a | 1.9 | n/a | -2.347 | n/a | n/a | n/a |
| CCCCCCCCN=c1cc[nH]cc1 | 65 | n/a | 2.28 | -4.207 | -4.557 | n/a | n/a | n/a |

Data: OPERA 2.9 data sets, kmansouri/OPERA on GitHub.